Results on three compounds are retold here after patent US10017509B2, “Macrocylic pyrimidine derivatives” (Janssen Pharmaceutica NV, priority 2014, dated 2018).

Chains of the proteins cited; added tags and fusions are not shown.
UniProt O00418, whole entry: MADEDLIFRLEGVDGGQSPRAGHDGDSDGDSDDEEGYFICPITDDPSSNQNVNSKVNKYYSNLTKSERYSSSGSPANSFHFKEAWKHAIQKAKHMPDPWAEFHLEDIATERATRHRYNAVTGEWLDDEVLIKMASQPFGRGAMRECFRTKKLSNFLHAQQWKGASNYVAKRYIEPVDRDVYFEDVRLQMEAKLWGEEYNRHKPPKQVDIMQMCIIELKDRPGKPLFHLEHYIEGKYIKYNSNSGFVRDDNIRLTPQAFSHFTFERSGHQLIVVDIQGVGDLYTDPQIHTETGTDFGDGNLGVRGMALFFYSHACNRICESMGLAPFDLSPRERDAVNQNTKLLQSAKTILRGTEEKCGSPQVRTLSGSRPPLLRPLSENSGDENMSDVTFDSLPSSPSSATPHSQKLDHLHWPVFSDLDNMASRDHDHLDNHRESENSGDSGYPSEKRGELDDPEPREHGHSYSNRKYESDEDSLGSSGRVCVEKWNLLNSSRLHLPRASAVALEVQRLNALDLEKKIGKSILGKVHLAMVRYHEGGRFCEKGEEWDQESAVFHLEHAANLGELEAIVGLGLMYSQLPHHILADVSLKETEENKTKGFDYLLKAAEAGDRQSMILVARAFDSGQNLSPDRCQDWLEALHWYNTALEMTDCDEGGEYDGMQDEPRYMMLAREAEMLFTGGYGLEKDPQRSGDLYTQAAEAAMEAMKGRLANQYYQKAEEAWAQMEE
UniProt Q8NEB9, whole entry: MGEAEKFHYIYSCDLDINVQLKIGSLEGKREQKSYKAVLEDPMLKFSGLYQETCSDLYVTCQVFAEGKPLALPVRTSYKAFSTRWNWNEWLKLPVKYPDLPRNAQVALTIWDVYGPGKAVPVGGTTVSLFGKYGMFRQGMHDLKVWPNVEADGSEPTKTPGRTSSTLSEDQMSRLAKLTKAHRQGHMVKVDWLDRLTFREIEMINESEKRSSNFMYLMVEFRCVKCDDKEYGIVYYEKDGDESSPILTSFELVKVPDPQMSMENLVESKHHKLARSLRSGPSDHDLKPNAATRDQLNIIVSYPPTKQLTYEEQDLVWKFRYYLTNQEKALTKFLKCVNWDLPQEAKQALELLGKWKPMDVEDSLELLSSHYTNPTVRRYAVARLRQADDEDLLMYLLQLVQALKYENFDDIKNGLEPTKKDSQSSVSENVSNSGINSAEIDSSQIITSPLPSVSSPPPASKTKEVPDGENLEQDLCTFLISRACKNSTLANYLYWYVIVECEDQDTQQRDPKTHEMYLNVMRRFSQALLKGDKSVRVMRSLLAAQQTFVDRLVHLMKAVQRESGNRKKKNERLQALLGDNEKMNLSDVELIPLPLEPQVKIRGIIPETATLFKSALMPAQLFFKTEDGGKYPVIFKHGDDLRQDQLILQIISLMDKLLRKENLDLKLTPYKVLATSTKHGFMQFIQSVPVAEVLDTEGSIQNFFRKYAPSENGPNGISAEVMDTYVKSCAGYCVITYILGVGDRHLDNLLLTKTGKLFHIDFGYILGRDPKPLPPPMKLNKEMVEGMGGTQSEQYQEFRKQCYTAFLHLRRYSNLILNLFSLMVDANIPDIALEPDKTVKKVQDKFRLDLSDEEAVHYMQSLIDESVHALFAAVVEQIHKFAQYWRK

Assay [1] concerns the target T1, EF2K (Homo sapiens, UniProt O00418). Put plainly: Biochemical EF2K lysate-based kinase assay (AlphaLISA p-eEF2 Thr56). Conditions: pIC50 = -log IC50 (M). The text has this:
Biochemical EF2K Lysate-Based Kinase Assay
LN-229 cells were purchased from ATCC (CRL-2611); these are glioblastoma cells. Cell lysates from LN229 were used in this kinase assay to provide both the kinase and the substrate (EF2). The AlphaLISA p-eEF2 (Thr56) detection assay was developed using a sandwich assay format with two specific antibodies recognizing different epitopes of the target, including one antibody against the phosphorylation site of interest. One anti-eEF2 antibody was conjugated onto AlphaLISA Acceptor beads, while the second antibody was biotinylated and captured by streptavidin coated Donor beads.
Compound was mixed with LN-229 cell lysates in the presence of a kinase buffer (e.g. HEPES) at a pH of 6.6, containing 10 mM Mg^2+ (e.g. magnesium acetate) and 10 mM adenosine-tri-phosphate (ATP) and incubated at room temperature for 15 minutes. The kinase reaction was stopped with excess ethylenediaminetetraacetic acid disodium salt and the biotinylated-anti phospho eEF2 antibody (3 nM) was added for 1 hour. Then the anti-EF2 acceptor beads (10 μg/ml) as well as the streptavidin coated donor beads (20 μg/ml) were added for 1 hour, and the AlphaLISA signal was measured in an Envision instrument once, left overnight, and measured again for the final read.
(§1) (pIC50 is −log IC50 where IC50 represents the concentration expressed in M at which the test compound gives 50% inhibition)
In general terms: Alpha assays give light when donor and acceptor beads are brought close together.

Assay [2] has as its target T1, EF2K. Put plainly: EF2K cell-based assay (P-EF2 AlphaLISA, 2-deoxyglucose stimulated MCF10A cells). To be noted: 2.5 mM 2-deoxyglucose stimulated, P-EF2 Thr56, pIC50 = -log IC50 (M). As for the experimental part:
In this assay, 2.5 mM 2-deoxyglucose was used to deplete intracellular ATP and activate 5′ adenosine monophosphate-activated protein kinase (AMPK) in the immortalized epithelial breast cell lines, MCF10A. MCF 10A cells were purchased from ATCC (CRL-10317).
MCF10A cells are seeded at a density of 1.25×10^5 Cells/ml at 100 μl/well in a 96-well plate and incubated for 24 hours (37° C., 5% CO2). Compound is added for 1 hour, and cell are stimulated with 2.5 mM of 2-deoxy-glucose for 4 hours. Medium is then removed, and cells are lysed in an ice-cold buffer M-PER (Thermo Scientific, 78501), containing protease and phosphatase inhibitors. P-EF2 levels are determined in these lysates using the P-EF2 AlphaLISA described above.
as §1

The target in assay [3] is Vps34 (PIK3C3 lipid kinase) (Homo sapiens, UniProt Q8NEB9). Kind of assay: Biochemical Vps34 lipid kinase assay (ADP-Glo). To be noted: for VPS34 pIC50: serial half-log dilution 10 μM to 0.3 nM, pIC50 = -log IC50 (M); for VPS34_1microM_% of cntrl: single dose 1 μM compound, residual activity compared to control (DMSO). How it is done:
Biochemical Vps34 Lipid Kinase Assay
A non-radiometric kinase assay (ADP-Glo™ Assay, Promega, Madison, Wi, USA) was used for measuring the kinase activity of the PIK3C3 lipid kinase. All kinase assays were performed in 96-well half-area microtiter plates in a 25 μl reaction volume. The reaction cocktail was pipetted in 3 steps in the following order: • 10 μl of ATP solution (in assay buffer, see below) • 5 μl of test sample in 5% DMSO 10 μl of enzyme/substrate mixture
All lipid kinase assays contained 50 mM HEPES (4-(2-hydroxyethyl)-1-piperazineethanesulfonic acid)-NaOH, pH 7.5, 1 mM EGTA ((ethylene glycol tetraacetic acid), 100 mM NaCl, 0.03% CHAPS (3-[(3-Cholamidopropyl)dimethylammonio]-1-propanesulfonate), 2 mM DTT (Dithiothreitol), 20 μM ATP (corresponding to the apparent ATP-Km), kinase (7.6 nM) and substrate (50 μM). The assay for PIK3C3 additionally contained 3 mM MnCl2.
The reaction cocktails were incubated at 30° C. for 60 minutes. The reaction was stopped with 25 μl ADP-Go™ reagent per well. Plates were incubated for 40 minutes at room temperature, followed by addition of 50 μl kinase detection reagent per well and incubation for 60 minutes at room temperature. Signal was determined with a microplate luminescence reader (Victor, Perkin Elmer). The assay was either performed using a single dose of compound (1 μM final concentration in the assay reaction) with resulting data expressed as residual activity compared to control (DMSO), or using a serial (half-log) dilution of compounds starting at 10 μM and down to 0.3 nM (final concentrations in the assay) with data expressed as the pIC50.
as §1
For orientation: ADP-Glo first removes unused ATP, then detects ADP through luciferase.

In the case of `CN1CCCN(C)c2ccc(cn2)-c2ccnc(n2)Nc2cccc(c2)CN2CCN(CC1=O)CC2COCCC#N` (stereo not shown), in assay [1], the “eEF2K_C_alphalisa pIC50” value was 7.09. In addition, the “eEF2K_C_PThr56 pIC50” value in assay [2] amounted to 4.83. Besides, in assay [3], the “VPS34 pIC50” value is 6.07 and the VPS34_1microM_% of cntrl is on record as 26.45 % of cntrl.

As for `CN1CCCN(C)c2ccc(cn2)-c2ccnc(n2)Nc2cccc(c2)CN2CCN(CC1=O)C(CO)C2` (single isomer, unassigned) [Compound 95], in assay [1], the “eEF2K_C_alphalisa pIC50” value came out at 7.17. Besides, the “eEF2K_C_PThr56 pIC50” value in assay [2] is roughly 4.89. In assay [3], the “VPS34 pIC50” value worked out at 6.48 and the VPS34_1microM_% of cntrl is 14.26 % of cntrl.

On to `CN1CCCOc2ccc(cn2)-c2ccnc(n2)Nc2cccc(c2)CN2CCN(CC2)CC1=O`, for which the “eEF2K_C_alphalisa pIC50” value in assay [1] is 4.83. In addition, the VPS34_1microM_% of cntrl in assay [3] is 59.71 % of cntrl.
